Assay results reported in patent US6075029A, “Xanthine modulators of metabolism of cellular P-450” (Cell Therapeutics, Inc., priority 1998, dated 2000).

Sequences of proteins named here, by UniProt entry; tags and fusion partners are left off.
UniProt P05177, whole entry: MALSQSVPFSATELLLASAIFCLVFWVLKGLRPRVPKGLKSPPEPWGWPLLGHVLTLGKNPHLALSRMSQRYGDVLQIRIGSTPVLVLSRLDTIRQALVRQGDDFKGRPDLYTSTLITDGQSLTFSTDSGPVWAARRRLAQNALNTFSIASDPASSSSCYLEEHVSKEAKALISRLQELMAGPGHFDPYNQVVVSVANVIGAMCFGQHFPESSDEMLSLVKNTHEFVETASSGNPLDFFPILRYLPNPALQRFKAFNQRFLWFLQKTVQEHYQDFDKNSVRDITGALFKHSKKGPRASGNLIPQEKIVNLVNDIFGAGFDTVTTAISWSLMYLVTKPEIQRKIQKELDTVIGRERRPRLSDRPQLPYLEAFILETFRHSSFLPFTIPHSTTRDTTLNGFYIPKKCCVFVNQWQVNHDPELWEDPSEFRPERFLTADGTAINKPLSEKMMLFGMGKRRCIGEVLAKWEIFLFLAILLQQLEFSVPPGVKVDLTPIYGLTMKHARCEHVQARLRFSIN

Molecular target: P-4501A2 (Homo sapiens, UniProt P05177)
Assay: Inhibition of P-450 mediated caffeine metabolism to paraxanthine in human liver microsomes
Settings: summary of Table 1
Description: The model system directly measures inhibition of P-4501A2-mediated metabolism in the physiological environment of human liver microsomes. Measurement of drug metabolism in a microsome system is directly predictive of liver metabolism in vivo. Thus, microsome data can be used to estimate the in vivo circulating half-life of compounds that are primarily metabolized in the liver.
Microsomes were prepared by standard techniques from four human livers. […] Three sets of enantiomers, CT2408 R&S, CT2410 R&S, and CT2412 R&S, were evaluated for inhibition of caffeine metabolism to paraxanthine by P-450.
Briefly, the inventive compounds were preincubated in microsomes with NADPH at concentrations of 100 μM for 0, 5, and 20 minutes. Samples containing only buffer, LSF, or furafylline were used as controls.
At the end of the preincubation period, the samples were diluted in a solution of NADPH and caffeine. The samples then were incubated for twenty minutes. Hydroxyethyl theophylline was added as an internal standard, and the samples were analyzed for paraxanthine via HPLC. […]
Thirty microliters of reconstituted sample were then applied to an Hewlett Packard 1050 HPLC system equipped with a Rainin Microsorb™ 4.6×100 mm column with 3 μm C-18 packing. […] Column eluent was monitored at 285 nm and paraxanthine, HET, and caffeine respectively eluted at 5.3, 6.6, and 9.8 minutes.

Structure (SMILES): Cc1nc2c([nH]1)c(=O)n(C)c(=O)n2Cc1ccco1 [FRF, 1,8-dimethyl-3-(2'furfuryl)-methylxanthine, reference compound]
- inhibition of P-450-mediated caffeine metabolism (in words): showed good inhibition
